Publication PMC6348381, “Discovery of an MLLT1/3 YEATS Domain Chemical Probe” (Angewandte Chemie (International Ed. in English), 2018)

By UniProt entry, the sequences of proteins in these tests, tags left out. Residues count along the entry.
UniProt Q03111, 1-138 limits assumed: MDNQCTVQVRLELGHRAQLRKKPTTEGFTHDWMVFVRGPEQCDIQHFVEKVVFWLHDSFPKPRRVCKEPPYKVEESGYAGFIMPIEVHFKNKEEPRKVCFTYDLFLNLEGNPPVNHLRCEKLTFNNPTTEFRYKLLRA
UniProt P42568, whole entry: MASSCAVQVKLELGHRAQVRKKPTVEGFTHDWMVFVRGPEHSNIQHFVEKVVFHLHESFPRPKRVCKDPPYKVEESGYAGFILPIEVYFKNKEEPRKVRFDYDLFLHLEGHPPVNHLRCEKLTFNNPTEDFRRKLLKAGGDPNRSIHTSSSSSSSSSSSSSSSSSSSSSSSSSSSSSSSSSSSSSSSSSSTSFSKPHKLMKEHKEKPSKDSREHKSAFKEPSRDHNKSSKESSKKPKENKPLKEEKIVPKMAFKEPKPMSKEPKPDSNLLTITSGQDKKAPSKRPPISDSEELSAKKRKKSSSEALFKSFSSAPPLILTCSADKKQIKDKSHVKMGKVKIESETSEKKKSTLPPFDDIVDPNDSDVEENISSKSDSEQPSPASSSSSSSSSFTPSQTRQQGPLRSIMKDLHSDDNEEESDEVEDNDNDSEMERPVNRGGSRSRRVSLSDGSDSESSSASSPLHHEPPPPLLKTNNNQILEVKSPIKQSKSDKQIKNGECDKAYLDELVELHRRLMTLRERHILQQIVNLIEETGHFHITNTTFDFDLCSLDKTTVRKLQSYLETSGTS

Key:
[1] = Metabolic stability in primary human hepatocytes; assay type: in vitro ADME
MLLT1 YD = MLLT1 YD (Homo sapiens, UniProt Q03111); test: Isothermal titration calorimetry (ITC), MLLT1 YD; assay type: binding; details: read-out: MLLT1 YD Kd
MLLT3 = MLLT3 (Homo sapiens, UniProt P42568); test: NanoBRET assay, full-length MLLT3-NanoLuc / histone H3.3-HaloTag in HEK293 cells; details: read-out: NanoBRET average IC50, MLLT3-NanoLuc/H3.3-HaloTag, 24 h, in the presence of SAHA, n=3 biological replicates

metabolic stability t1/2 [1]: ≈ 30 min | Kd (MLLT1 YD): 58 nM | IC50 (MLLT3): 967 nM
SMILES: C[C@H]1CCCN1Cc1nc2cc(NC(=O)c3ccc4c(cnn4C4CC4)c3)ccc2[nH]1
